Assay results taken from EP3795574A1, “SYNTHESIS AND USAGE OF 1,2-DIAMINODIAMANTANE PLATINUM(II) COMPLEXES” (Justus-Liebig-Universität Gießen, priority 2019, dated 2021).

Experiment: Solubility of the complexes in solvents
Details: solvent not stated

In the case of “cis-[1,2-diaminodiamantane]oxalatoplatinum(II) [(S,S)-2]”, the solubility is reported as “very low solubility”.
